Some compounds may have been tested in ways that are not shown here.
Test: in vitro iontophoretic delivery through excised porcine skin in flow-through cells
Conditions: 500 uA

remifentanil hydrochloride
Flux (Exp #11, 10 mg/ml in 10 mM acetic acid, 1 mg, 0.00 hrs): 0.00 μg/min/cm^2
Flux (Exp #11, 10 mg/ml in 10 mM acetic acid, 1 mg, 1.00 hrs): 0.00 μg/min/cm^2
Flux (Exp #11, 10 mg/ml in 10 mM acetic acid, 1 mg, 2.00 hrs): 0.00 μg/min/cm^2
Flux (Exp #11, 10 mg/ml in 10 mM acetic acid, 1 mg, 3.00 hrs): 0.00 μg/min/cm^2
Flux (Exp #11, 10 mg/ml in 10 mM acetic acid, 1 mg, 4.00 hrs): 0.00 μg/min/cm^2
Flux (Exp #11, 10 mg/ml in 10 mM acetic acid, 1 mg, 5.00 hrs): 0.01 μg/min/cm^2
Flux (Exp #11, 10 mg/ml in 10 mM acetic acid, 1 mg, 6.00 hrs): 0.01 μg/min/cm^2
Flux (Exp #11, 10 mg/ml in 10 mM acetic acid, 1 mg, 7.00 hrs): 0.01 μg/min/cm^2
Flux (Exp #11, 10 mg/ml in 10 mM acetic acid, 1 mg, 8.00 hrs): 0.02 μg/min/cm^2
Flux (Exp #11, 10 mg/ml in 10 mM acetic acid, 1 mg, 9.00 hrs): 0.03 μg/min/cm^2
Flux (Exp #11, 10 mg/ml in 10 mM acetic acid, 1 mg, 10.00 hrs): 0.06 μg/min/cm^2
Flux (Exp #11, 10 mg/ml in 10 mM acetic acid, 1 mg, 11.00 hrs): 0.06 μg/min/cm^2
Flux (Exp #11, 10 mg/ml in 10 mM acetic acid, 1 mg, 12.00 hrs): 0.08 μg/min/cm^2
Flux (Exp #11, 10 mg/ml in 10 mM acetic acid, 1 mg, 13.00 hrs): 0.09 μg/min/cm^2
Flux (Exp #11, 10 mg/ml in 10 mM acetic acid, 1 mg, 14.00 hrs): 0.11 μg/min/cm^2
Flux (Exp #11, 10 mg/ml in 10 mM acetic acid, 1 mg, 15.00 hrs): 0.12 μg/min/cm^2
Flux (Exp #11, 10 mg/ml in 10 mM acetic acid, 1 mg, 16.00 hrs): 0.12 μg/min/cm^2
Flux (Exp #11, 10 mg/ml in 10 mM acetic acid, 1 mg, 17.00 hrs): 0.13 μg/min/cm^2
Flux (Exp #11, 10 mg/ml in 10 mM acetic acid, 1 mg, 18.00 hrs): 0.15 μg/min/cm^2
Flux (Exp #11, 10 mg/ml in 10 mM acetic acid, 1 mg, 19.00 hrs): 0.15 μg/min/cm^2
Flux (Exp #11, 10 mg/ml in 10 mM acetic acid, 1 mg, 20.00 hrs): 0.17 μg/min/cm^2
Flux (Exp #11, 10 mg/ml in 10 mM acetic acid, 1 mg, 21.00 hrs): 0.16 μg/min/cm^2
Flux (Exp #11, 10 mg/ml in 10 mM acetic acid, 1 mg, 22.00 hrs): 0.18 μg/min/cm^2
Flux (Exp #11, 10 mg/ml in 10 mM acetic acid, 1 mg, 23.00 hrs): 0.19 μg/min/cm^2
Flux (Exp #11, 10 mg/ml in 10 mM acetic acid, 1 mg, 24.00 hrs): 0.20 μg/min/cm^2
Flux (Exp #12, 10 mg/ml in 10 mM acetic acid, 3 mg, 0.00 hrs): 0.00 μg/min/cm^2
Flux (Exp #12, 10 mg/ml in 10 mM acetic acid, 3 mg, 1.00 hrs): 0.00 μg/min/cm^2
Flux (Exp #12, 10 mg/ml in 10 mM acetic acid, 3 mg, 2.00 hrs): 0.00 μg/min/cm^2
Flux (Exp #12, 10 mg/ml in 10 mM acetic acid, 3 mg, 3.00 hrs): 0.01 μg/min/cm^2
Flux (Exp #12, 10 mg/ml in 10 mM acetic acid, 3 mg, 4.00 hrs): 0.01 μg/min/cm^2
Flux (Exp #12, 10 mg/ml in 10 mM acetic acid, 3 mg, 5.00 hrs): 0.02 μg/min/cm^2
Flux (Exp #12, 10 mg/ml in 10 mM acetic acid, 3 mg, 6.00 hrs): 0.02 μg/min/cm^2
Flux (Exp #12, 10 mg/ml in 10 mM acetic acid, 3 mg, 7.00 hrs): 0.02 μg/min/cm^2
Flux (Exp #12, 10 mg/ml in 10 mM acetic acid, 3 mg, 8.00 hrs): 0.02 μg/min/cm^2
Flux (Exp #12, 10 mg/ml in 10 mM acetic acid, 3 mg, 9.00 hrs): 0.02 μg/min/cm^2
Flux (Exp #12, 10 mg/ml in 10 mM acetic acid, 3 mg, 10.00 hrs): 0.01 μg/min/cm^2
Flux (Exp #12, 10 mg/ml in 10 mM acetic acid, 3 mg, 11.00 hrs): 0.01 μg/min/cm^2
Flux (Exp #12, 10 mg/ml in 10 mM acetic acid, 3 mg, 12.00 hrs): 0.01 μg/min/cm^2
Flux (Exp #12, 10 mg/ml in 10 mM acetic acid, 3 mg, 13.00 hrs): 0.01 μg/min/cm^2
Flux (Exp #12, 10 mg/ml in 10 mM acetic acid, 3 mg, 14.00 hrs): 0.01 μg/min/cm^2
Flux (Exp #12, 10 mg/ml in 10 mM acetic acid, 3 mg, 15.00 hrs): 0.02 μg/min/cm^2
Flux (Exp #12, 10 mg/ml in 10 mM acetic acid, 3 mg, 16.00 hrs): 0.02 μg/min/cm^2
Flux (Exp #12, 10 mg/ml in 10 mM acetic acid, 3 mg, 17.00 hrs): 0.03 μg/min/cm^2
Flux (Exp #12, 10 mg/ml in 10 mM acetic acid, 3 mg, 18.00 hrs): 0.03 μg/min/cm^2
Flux (Exp #12, 10 mg/ml in 10 mM acetic acid, 3 mg, 19.00 hrs): 0.04 μg/min/cm^2
Flux (Exp #12, 10 mg/ml in 10 mM acetic acid, 3 mg, 20.00 hrs): 0.04 μg/min/cm^2
Flux (Exp #12, 10 mg/ml in 10 mM acetic acid, 3 mg, 21.00 hrs): 0.05 μg/min/cm^2
Flux (Exp #12, 10 mg/ml in 10 mM acetic acid, 3 mg, 22.00 hrs): 0.06 μg/min/cm^2
Flux (Exp #12, 10 mg/ml in 10 mM acetic acid, 3 mg, 23.00 hrs): 0.07 μg/min/cm^2
Flux (Exp #12, 10 mg/ml in 10 mM acetic acid, 3 mg, 24.00 hrs): 0.08 μg/min/cm^2
Flux (Exp #13, 2.5 mg/ml in 10 mM acetic acid, 0.75 mg, 0.00 hrs): 0.00 μg/min/cm^2
Flux (Exp #13, 2.5 mg/ml in 10 mM acetic acid, 0.75 mg, 1.00 hrs): 0.00 μg/min/cm^2
Flux (Exp #13, 2.5 mg/ml in 10 mM acetic acid, 0.75 mg, 2.00 hrs): 0.00 μg/min/cm^2
Flux (Exp #13, 2.5 mg/ml in 10 mM acetic acid, 0.75 mg, 3.00 hrs): 0.00 μg/min/cm^2
Flux (Exp #13, 2.5 mg/ml in 10 mM acetic acid, 0.75 mg, 4.00 hrs): 0.01 μg/min/cm^2
Flux (Exp #13, 2.5 mg/ml in 10 mM acetic acid, 0.75 mg, 5.00 hrs): 0.01 μg/min/cm^2
Flux (Exp #13, 2.5 mg/ml in 10 mM acetic acid, 0.75 mg, 6.00 hrs): 0.01 μg/min/cm^2
Flux (Exp #13, 2.5 mg/ml in 10 mM acetic acid, 0.75 mg, 7.00 hrs): 0.01 μg/min/cm^2
Flux (Exp #13, 2.5 mg/ml in 10 mM acetic acid, 0.75 mg, 8.00 hrs): 0.02 μg/min/cm^2
Flux (Exp #13, 2.5 mg/ml in 10 mM acetic acid, 0.75 mg, 9.00 hrs): 0.03 μg/min/cm^2
Flux (Exp #13, 2.5 mg/ml in 10 mM acetic acid, 0.75 mg, 10.00 hrs): 0.04 μg/min/cm^2
Flux (Exp #13, 2.5 mg/ml in 10 mM acetic acid, 0.75 mg, 11.00 hrs): 0.05 μg/min/cm^2
Flux (Exp #13, 2.5 mg/ml in 10 mM acetic acid, 0.75 mg, 12.00 hrs): 0.06 μg/min/cm^2
Flux (Exp #13, 2.5 mg/ml in 10 mM acetic acid, 0.75 mg, 13.00 hrs): 0.07 μg/min/cm^2
Flux (Exp #13, 2.5 mg/ml in 10 mM acetic acid, 0.75 mg, 14.00 hrs): 0.08 μg/min/cm^2
Flux (Exp #13, 2.5 mg/ml in 10 mM acetic acid, 0.75 mg, 15.00 hrs): 0.09 μg/min/cm^2
Flux (Exp #13, 2.5 mg/ml in 10 mM acetic acid, 0.75 mg, 16.00 hrs): 0.10 μg/min/cm^2
Flux (Exp #13, 2.5 mg/ml in 10 mM acetic acid, 0.75 mg, 17.00 hrs): 0.10 μg/min/cm^2
Flux (Exp #13, 2.5 mg/ml in 10 mM acetic acid, 0.75 mg, 18.00 hrs): 0.11 μg/min/cm^2
Flux (Exp #13, 2.5 mg/ml in 10 mM acetic acid, 0.75 mg, 19.00 hrs): 0.11 μg/min/cm^2
Flux (Exp #13, 2.5 mg/ml in 10 mM acetic acid, 0.75 mg, 20.00 hrs): 0.12 μg/min/cm^2
Flux (Exp #13, 2.5 mg/ml in 10 mM acetic acid, 0.75 mg, 21.00 hrs): 0.12 μg/min/cm^2
Flux (Exp #13, 2.5 mg/ml in 10 mM acetic acid, 0.75 mg, 22.00 hrs): 0.11 μg/min/cm^2
Flux (Exp #13, 2.5 mg/ml in 10 mM acetic acid, 0.75 mg, 23.00 hrs): 0.12 μg/min/cm^2
Flux (Exp #13, 2.5 mg/ml in 10 mM acetic acid, 0.75 mg, 24.00 hrs): 0.11 μg/min/cm^2
Flux (Exp #14, 20 mg/ml in 10 mM acetic acid, 2 mg, 0.00 hrs): 0.00 μg/min/cm^2

— patent US6858018B1
